Measured values from paper PMC11661604.

Legend:
Assay in all cases: SPR
Details in all cases: Fc fusion
[1] = target: native Semliki Forest virus (SFV) virion (Semliki Forest virus)
[2] = target: native Semliki Forest virus (SFV) virion (Semliki Forest virus); remark: listed apart in the source
[3] = target: native Semliki Forest virus (SFV) virion (Semliki Forest virus); remark: listed apart in the source

For LA5-Fc (from UniProt P98155-1 190-237), the Kd [1] was 15 µM, the Kd [2] was 14.1 µM and the Kd [3] was 15.7 µM.
